Test results taken from patent US20190209472A1, “FORMULATIONS FOR DERMAL DELIVERY OF POLYMER CONJUGATES OF INDOLOCARBAZOLE COMPOUNDS WITH REDUCED EXPOSURE” (Sienna Biopharmaceuticals, Inc., priority 2017, published 2019).

Type: physicochemical
Description: Twenty-one solvents were selected for the evaluation. Solubility was assessed visually.
Under dim light conditions a small amount of API (˜0.05 g) was weighed into type 1 clear glass vials. To each vial, approximately 10 g of the solvent was added. Samples were shaken manually for a few minutes and visually observed to check if the API had dissolved, as indicated by the clarity of the solution. In the event API dissolved, the procedure was repeated by adding more API up to a maximum of 10% w/w.

(9S, 10R, 12R)-10-(3′-mPEG2000-1′,3′-oxazolidine-2′,4′-dione)-2,3,9,10,11,12-hexahydro-9-methyl-1-oxo-9,12-epoxy-1H-diindolo[1,2,3-fg:3′,2′,1′-k,l]pyrrolo[3,4-i][1,6] benzodiazocine] [CT327]
Solubility of CT327 in single solvents, Comments (N-Methyl pyrrolidone): good solubility; also recorded: Excellent solubility
Solubility of CT327 in single solvents, Comments (Propylene carbonate): Excellent solubility

Entries after “also recorded” stand apart in the source; their conditions may differ. Where two headings read alike, the source gives them in different places.
